# This is a selection; strong and weak results do not stand in their true shares. The source made the active and inactive calls. Rule as the data show it: active = activation above about 12%; inactive = the rest.
# Test: calcium activation in Ga16-expressing cells, counter-screen for TAAR1 antagonist project, cell-based, fluorescence (AID 651953);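 also: 0% = vehicle wells and 100% = saturating stimulus response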
# Details: agonist counterscreen, at 3 µM, stronger effect = higher value
row,Compound,activation
1,Cc1ccccc1OP(=O)(Nc1ccccn1)Oc1ccccc1C,inactive: 8.93%
